Results reported in ChEMBL document CHEMBL4339198, “Use of a Conformational-Switching Mechanism to Modulate Exposed Polarity: Discovery of CCR2 Antagonist BMS-741672” (ACS Med Chem Lett, 2019).

Amino acid sequences for entries named in this document (tags omitted). A change or cut given only in a name is not applied to a line headed by its entry.
UniProt P41597: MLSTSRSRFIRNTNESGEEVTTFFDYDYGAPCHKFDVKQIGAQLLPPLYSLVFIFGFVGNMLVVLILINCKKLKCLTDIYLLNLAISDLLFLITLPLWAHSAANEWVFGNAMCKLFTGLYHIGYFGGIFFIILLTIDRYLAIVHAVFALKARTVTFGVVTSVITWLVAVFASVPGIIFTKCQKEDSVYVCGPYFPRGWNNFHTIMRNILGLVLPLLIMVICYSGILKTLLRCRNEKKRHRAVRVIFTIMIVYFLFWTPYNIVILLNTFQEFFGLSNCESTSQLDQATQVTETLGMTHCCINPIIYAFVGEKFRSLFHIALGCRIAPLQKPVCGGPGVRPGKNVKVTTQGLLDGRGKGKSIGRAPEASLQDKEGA

Biological target: C-C chemokine receptor type 2 (Homo sapiens, UniProt P41597)

IC50: 1.1 nM
Structure (SMILES): CC(=O)N[C@@H]1C[C@H](N(C)C(C)C)CC[C@@H]1N1CC[C@H](Nc2ncnc3ccc(C(F)(F)F)cc23)C1=O
